The values that follow come from patent EP4790062A1, “PHAGE PARTICLE COMPLEX, PREPARATION METHOD THEREFOR, AND USE THEREOF” (Pingshan Translational Medicine Center, Shenzhen Bay …, priority 2023, dated 2025).

Amino acid sequences for entries named in this document (tags omitted).
UniProt P03372, whole entry: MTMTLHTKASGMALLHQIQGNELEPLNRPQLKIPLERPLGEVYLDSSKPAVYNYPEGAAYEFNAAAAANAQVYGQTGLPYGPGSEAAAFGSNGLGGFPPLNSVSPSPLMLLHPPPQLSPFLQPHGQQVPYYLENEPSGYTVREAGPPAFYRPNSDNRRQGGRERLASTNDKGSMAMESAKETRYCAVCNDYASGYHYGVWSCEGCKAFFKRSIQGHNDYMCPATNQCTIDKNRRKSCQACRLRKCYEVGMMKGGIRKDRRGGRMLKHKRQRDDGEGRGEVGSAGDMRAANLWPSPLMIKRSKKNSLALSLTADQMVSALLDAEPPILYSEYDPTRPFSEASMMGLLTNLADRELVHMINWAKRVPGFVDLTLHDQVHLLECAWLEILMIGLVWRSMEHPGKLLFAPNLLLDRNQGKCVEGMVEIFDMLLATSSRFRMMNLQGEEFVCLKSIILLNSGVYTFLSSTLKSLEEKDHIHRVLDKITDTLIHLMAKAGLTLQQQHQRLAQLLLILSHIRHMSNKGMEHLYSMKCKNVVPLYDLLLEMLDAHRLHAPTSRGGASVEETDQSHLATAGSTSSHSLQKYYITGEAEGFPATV

This test addresses ERα protein (Homo sapiens, UniProt P03372). Put plainly: Affinity to ERα protein by the MST method. The format is binding. The conditions noted are these: FAM-tagged peptide 40nM, protein 2-fold gradient dilution, 16 concentrations. Here is the method:
The affinity of the sulfonium stapled bicyclic peptide inhibitor and ERα protein was determined by the MST method. The purified 10µL STAT3 protein solution (about 100µM) was taken and subjected to a 2-fold gradient dilution to prepare 16 concentration gradient dilutions. The peptides with the FAM tags were diluted to a final concentration of 40nM. 10µL of the protein gradient dilutions was taken for mixing. A mixed sample was sucked with a capillary to perform the MST experiment. Table 11. Peptide preparation and affinity assay with screened peptides

By Kd is commonly meant a measure of binding affinity in units of concentration. A high value points to a looser complex. In turn, GMAQQAKWMIRWLLGM [ER-W1-3M] returned a Kd of 5110 nM. The same measure for GMARGRGQMQFYTSSM [ER-R7-3M]: 910 nM; for GMCGSLQPMPWLARYM [ER-W3-3M]: 1030 nM. For GMCPWYKGMVCSRFVM [ER-C1-3M], the Kd was determined as 1110 nM.

GMIRYPSTMLDRPRQM [ER-P3-3M] yielded a Kd of 7530 nM. Turning to GMRISQTQMQDSWDWM [ER-R1-3M], the Kd worked out at 3050 nM. The value for GMRLAVTTMGYGFLQM [ER-R2-3M] was 260 nM; that for GMRRTYYRMRRAPQLM [ER-R9-3M] was 1090 nM; that for GMSLCAHPMAGVPSYM [ER-S1-3M] was 640 nM. Consider GMYVVLQRMYRPRNVM [ER-P2-3M], for which binding was put at a Kd of 930 nM. YMDCLCPRMRSFAGAM [ER-R4-3M] returned a Kd of 380 nM.

Regarding YMLAKQYPMRQASCSM [ER-X2-3M], the Kd was determined as 360 nM. As to YMLRPQQVMRLFATSM [ER-P4-3M], the Kd came out at 2210 nM. The value for YMPIARKSMRHGRSSM [ER-X1-3M] was 530 nM; that for YMPTSLQFMAGQRHPM [ER-P1-3M] was 8440 nM; that for YMQATFPSMRGLQCDM [ER-P5-3M] was 550 nM. Consider YMSPKLIAMGLQTPIM [ER-S2-3M], for which binding was put at a Kd of 420 nM. The same measure for YMSPRNGHMLRNSSDM [ER-S3-3M]: 370 nM; for YMSVRDADMRQRGASM [ER-R5-3M]: 5280 nM. The same measure for YMVRGRAQMSPALVQM [ER-V2-3M]: 10400 nM.
